Experimental findings from patent US20060194321A1, “Directed differentiation of embryonic stem cells and uses thereof” (priority 2005, published 2006) are described below.

The subject of the test is Human embryonic stem cell 3 (hES3). Kind of test: pdx-1 expression by quantitative RT-PCR in embryoid bodies in 3D MATRIGEL (initiation protocol). It counts as cell-based. Here is the method: Human embryonic stem cell 3 (hES3) were subjected to a multi-step differentiation protocol, as outlined in FIG. 2. The embryonic stem cells were cultured as embryoid bodies suspended in 3D in MATRIGEL™. The cells were cultured for 10 days in medium containing the early factors and then for 10 days in medium containing the late factors. Following culture, cells were assayed for expression of pdx-1.
To establish a baseline for comparison, human embryonic stem cells were differentiated, as described above, in 3-dimensional culture in MATRIGEL™ for 20 days. For the first 10 days the cells were cultured in the presence of early factors (Activin A: 50 ng/ml; BMP2: 50 ng/ml; BMP4: 50 ng/ml; Nodal: 50 ng/ml) and for the second 10 days the cells were cultured in the presence of late factors (Betacellulin: 50 ng/ml; HGF: 50 ng/ml; Exendin-4: 10 ng/ml, Nicotinamide: 10 mM). pdx-1 levels were measured by RT-PCR at various time points during culture of the cells in the 3D MATRIGEL™ protocol. RNA was isolated and analyzed for pdx-1 and actin expression by RT-PCR. Data were standardized in comparison to actin expression, and the results are expressed as absolute g pdx-1/kg Actin expression+/−SD.
We evaluated individual early and late factors. […] The efficacy of BMP4 and Activin A was most dramatic when the late factor mix excluded the poly(ADP-ribose) polymerase inhibitor Nicotinamide. […]

B1: BMP2: early factor, growth factor structurally related to BMP4 (protein, UniProt P12643 283-396, looked up)
Bone morphogenetic protein 2: QAKHKQRKRLKSSCKRHPLYVDFSDVGWNDWIVAPPGYHAFYCHGECPFPLADHLNSTNHAIVQTLVNSVNSKIPKACCVPTELSAISMLYLDENEKVVLKNYQDMVVEGCGCR
In the case of B1, where the note is “FIG. 13A, G2 versus G7”, the “pdx-1 expression with EF cocktail lacking the factor versus all four EFs” value is listed as “slightly greater”. The “contribution of the factor to induction of pdx-1 expression” value (factor included in or omitted from the early/late factor cocktail, day 20) is given as “optional”.
